Reference: paper PMC10578927, “An unconventional gatekeeper mutation sensitizes inositol hexakisphosphate kinases to an allosteric inhibitor” (eLife, 2023)

Chains of the proteins cited; added tags and fusions are not shown. Lines headed by an entry give the natural chain unless they say otherwise; changes in a name come on top.
UniProt Q92551, whole entry L210V: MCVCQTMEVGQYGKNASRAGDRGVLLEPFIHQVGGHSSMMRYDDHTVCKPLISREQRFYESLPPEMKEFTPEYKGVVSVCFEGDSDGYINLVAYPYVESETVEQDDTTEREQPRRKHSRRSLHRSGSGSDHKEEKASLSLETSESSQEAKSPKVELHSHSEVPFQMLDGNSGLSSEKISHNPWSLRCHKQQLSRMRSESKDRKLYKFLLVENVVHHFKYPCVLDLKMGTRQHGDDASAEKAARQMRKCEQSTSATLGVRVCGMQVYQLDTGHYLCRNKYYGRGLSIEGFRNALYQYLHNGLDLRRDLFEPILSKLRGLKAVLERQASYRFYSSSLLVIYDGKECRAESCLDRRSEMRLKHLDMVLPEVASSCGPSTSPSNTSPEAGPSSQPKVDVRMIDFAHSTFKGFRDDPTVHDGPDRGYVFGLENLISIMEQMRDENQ
UniProt Q92551, whole entry: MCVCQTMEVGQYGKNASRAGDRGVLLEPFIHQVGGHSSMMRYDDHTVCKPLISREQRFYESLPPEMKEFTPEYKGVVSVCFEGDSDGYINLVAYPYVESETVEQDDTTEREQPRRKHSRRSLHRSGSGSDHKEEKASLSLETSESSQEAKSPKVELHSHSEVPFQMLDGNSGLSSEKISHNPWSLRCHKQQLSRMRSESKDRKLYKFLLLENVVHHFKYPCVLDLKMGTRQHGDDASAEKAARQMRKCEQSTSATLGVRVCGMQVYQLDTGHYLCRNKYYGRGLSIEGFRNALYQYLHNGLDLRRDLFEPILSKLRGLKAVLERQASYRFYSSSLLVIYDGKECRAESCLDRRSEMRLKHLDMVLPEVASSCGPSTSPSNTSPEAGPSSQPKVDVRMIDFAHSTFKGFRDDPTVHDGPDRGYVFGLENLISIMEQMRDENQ

Experiments:
HEK293 = experiment: Cytotoxicity, cell survival after 72 hr incubation; format: cell-based; conditions: HEK293, 10 µM
HepG2 = experiment: Cytotoxicity, cell survival after 72 hr incubation; format: cell-based; conditions: HepG2, 10 µM
IP6K1^wt = IP6K1^wt (Homo sapiens, UniProt Q92551); experiment: High-throughput screen, reverse kinase reaction (5PP-InsP5 + ADP), Kinase-Glo luminescence; format: biochemical; conditions: read-out: IC50 (IP6K1^wt), dose-dependent reconfirmation
IP6K1^L210V = IP6K1^L210V (Homo sapiens, UniProt Q92551, L210V); experiment: as above; format: biochemical; conditions: for Z-score: primary screen, IP6K1^L210V; for IC50: read-out: IC50 (IP6K1^L210V), Kinase-Glo, reverse reaction, dose-dependent reconfirmation

Row | IC50 (IP6K1^wt) [µM] | Z-score (IP6K1^L210V) | IC50 (IP6K1^L210V) [µM] | SMILES | Cell number (%) (HEK293) | Cell number (%) (HepG2)
1 | 85.3 | -18.2 | 5.13 | O=c1c(O)c(-c2ccc(O)c(O)c2)oc2cc(O)ccc12 | 72.7 ± 9.8 | 67.4 ± 6.4
2 | 47.5 | -24.6 | 1.76 | Cc1c(O)cc2oc(-c3ccc(O)c(O)c3)c(O)c(=O)c2c1O | – | –

Row | SMILES | IC50 (IP6K1^wt) [µM] | Z-score (IP6K1^L210V) | IC50 (IP6K1^L210V) [µM] | Cell number (%) (HEK293) | Cell number (%) (HepG2)
3 | O=c1c(O)c(-c2ccc(O)c(O)c2)oc2cc(O)cc(O)c12 [compound 405356, quercetin, reference compound] | – | -17.5 | – | – | –
